Tests used:
Staphylococcus aureus [1] = settings: ATCC 29213, time 16-18 hrs
Staphylococcus aureus [2] = settings: ATCC 29213, time 24.0 hrs

## GENTAMICIN
Staphylococcus aureus [1]
  MIC: 0.5 µg/mL
Staphylococcus aureus [2]
  FIC: 0.12

Reference: ChEMBL document CHEMBL5137134, “Developing the Natural Prenylflavone Artocarpin from Artocarpus hirsutus as a Potential Lead Targeting Pathogenic, Multidrug-Resistant Staphylococcus aureus, Persisters and Biofilms with No Detectable Resistance” (J Nat Prod, 2022)
